Values of other authors in patent US20080269167A1, “Preparation Comprising Iron(III) Complex Compounds And Redox-Active Substance(s)” (VIFOR (INTERNATIONAL) AG, priority 2005, published 2008).
Read-outs that look alike come from different tables or passages of the source.

Conditions: 3 mg of Fe from maize porridge meal, cited from earlier work

In the case of iron(III) hydroxide, the “absorption of Fe” value (with addition of 100 mg of ascorbic acid) is given as 10.5% and the “absorption of Fe” value (without ascorbic acid) is given as 0.4%.
